Drawing on patent publication US20240174727A1, “LONG-ACTING NATRIURETIC PEPTIDES AND USES THEREOF” (Eli Lilly and Company, priority 2022, published 2024), this text covers EC50 for two compounds.

This assay concerns the target T1, human NPRA (Homo sapiens, UniProt P16066).
T1 construct: Full-Length cDNA Cloning and Generation of Cell Lines Overexpressing Natriuretic Peptide Receptors (NPRs); expressed in transfected cells; host or cells: Jump-in T-Rex HEK293 cells, pJTI R4 CMV-TO MCS pA vector, tetracycline induction
T1 sequence (P16066 33-1061): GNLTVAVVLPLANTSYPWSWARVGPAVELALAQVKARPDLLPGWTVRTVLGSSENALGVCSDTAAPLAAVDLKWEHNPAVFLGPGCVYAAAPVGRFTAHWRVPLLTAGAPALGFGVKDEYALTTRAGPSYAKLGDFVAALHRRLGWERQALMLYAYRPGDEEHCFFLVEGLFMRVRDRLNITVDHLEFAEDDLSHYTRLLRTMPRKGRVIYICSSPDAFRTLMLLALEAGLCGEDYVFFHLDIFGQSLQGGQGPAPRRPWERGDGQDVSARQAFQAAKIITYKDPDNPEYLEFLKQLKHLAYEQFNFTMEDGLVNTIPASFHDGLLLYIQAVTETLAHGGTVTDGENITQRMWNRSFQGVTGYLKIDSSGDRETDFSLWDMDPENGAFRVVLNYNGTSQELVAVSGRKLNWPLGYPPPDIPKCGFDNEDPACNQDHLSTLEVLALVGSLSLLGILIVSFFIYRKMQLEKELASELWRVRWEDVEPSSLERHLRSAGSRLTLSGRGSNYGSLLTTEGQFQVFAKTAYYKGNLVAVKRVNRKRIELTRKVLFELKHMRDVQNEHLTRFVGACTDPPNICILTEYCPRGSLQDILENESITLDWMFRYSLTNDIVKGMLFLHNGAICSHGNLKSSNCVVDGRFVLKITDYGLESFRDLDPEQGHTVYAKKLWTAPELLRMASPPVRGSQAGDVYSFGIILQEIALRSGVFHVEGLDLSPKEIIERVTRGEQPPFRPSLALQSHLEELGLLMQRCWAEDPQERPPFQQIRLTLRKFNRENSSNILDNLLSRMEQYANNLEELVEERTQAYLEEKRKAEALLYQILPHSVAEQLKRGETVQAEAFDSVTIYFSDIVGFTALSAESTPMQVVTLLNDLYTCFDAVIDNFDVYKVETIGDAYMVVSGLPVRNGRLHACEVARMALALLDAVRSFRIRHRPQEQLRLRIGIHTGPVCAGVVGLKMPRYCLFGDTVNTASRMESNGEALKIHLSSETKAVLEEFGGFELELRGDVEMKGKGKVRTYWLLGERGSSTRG
In words: Human NPRA cGMP activity assay (HTRF) in HEK293 cells overexpressing NPRA. Type of assay: cell-based. Put shortly: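 Tetracycline-induced (300 ng/mL, 48 h) T-Rex HEK293 cells expressing NPRA, 4000 cells/well, treated 40 min at room temperature with polypeptide (8 points, 10 μM to 1 pM) in HBSS/HEPES buffer with 0.5 mM IBMX, pH 7.4. cGMP by HTRF, normalised to 100 nM amidated rat ANP and buffer.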
(In general: In TR-FRET formats the signal depends on donor and acceptor labels being close together.)

Setting [1] is: cGMP Assay (EC50, pM) w/BSA hNPRA, assay buffer with 0.1% BSA.
[2] abbreviates: cGMP Assay (EC50, pM) w/Casein hNPRA, assay buffer with 0.1% casein.

With `CC[C@H](C)[C@@H]1NC(=O)[C@H](CCCNC(=N)N)NC(=O)[C@H](CC(=O)O)NC(=O)[C@H]([C@@H](C)CC)NC(=O)[C@H](CCCNC(=N)N)NC(=O)CNC(=O)CNC(=O)[C@H](Cc2ccccc2)NC(=O)[C@@H](NC(=O)[C@H](CO)NC(=O)[C@H](CO)NC(=O)[C@H](CCCNC(=N)N)NC(=O)[C@H](CCCNC(=N)N)NC(=O)[C@H](Cc2ccncc2)NC(=O)[C@H](CO)NC(=O)CNC(=O)[C@H](CCCCN)NC(=O)[C@H](CCC(=O)O)NC(=O)[C@H](CCCCN)NC(=O)[C@H](CCC(=O)O)NC(=O)[C@H](CCCCN)NC(=O)[C@H](CCC(=O)O)NC(=O)CC[C@H](NC(=O)CCCCCCCCCCCCCCCCCCC(=O)O)C(=O)O)CSCSC[C@@H](C(=O)N2CCC[C@H]2C(=O)N[C@@H](CO)C(=O)N[C@@H](Cc2ccccc2)C(=O)N[C@@H](CCCNC(=N)N)C(=O)N[C@@H](Cc2c[nH]cn2)C(=O)NCC(=O)NCC(=O)N[C@@H](CO)C(=O)N[C@@H](CO)C(=O)NCC(=O)N[C@@H](C)C(=O)N2CCC[C@H]2C(=O)N2CCC[C@H]2C(=O)N2CCC[C@H]2C(=O)N[C@@H](CO)C(N)=O)NC(=O)CNC(=O)[C@H](CC(C)C)NC(=O)CNC(=O)[C@H](CO)NC(=O)[C@H](CCC(N)=O)NC(=O)[C@H](Cc2c[nH]cn2)NC(=O)CNC1=O` [Example 66], the midpoint of the response under setting [1], the EC50, lay at 140000 pM and it took 826 pM to reach a half-maximal effect under setting [2] (EC50).
For `CC[C@H](C)[C@@H]1NC(=O)[C@H](CCCNC(=N)N)NC(=O)[C@H](CC(=O)O)NC(=O)[C@H]([C@@H](C)CC)NC(=O)[C@H](CCCNC(=N)N)NC(=O)[C@H](CCCCN)NC(=O)CNC(=O)[C@H](Cc2ccccc2)NC(=O)[C@@H](NC(=O)[C@H](CO)NC(=O)[C@H](CO)NC(=O)[C@H](CCCNC(=N)N)NC(=O)CCNC(=O)[C@H](CCCCN)NC(=O)[C@H](CCC(=O)O)NC(=O)CCOCCOCCOCCOCCOCCOCCOCCOCCOCCOCCOCCOCCOCCOCCOCCOCCOCCOCCOCCOCCOCCOCCOCCOCCNC(=O)CNC(=O)[C@H](CCCCN)NC(=O)[C@H](CCC(=O)O)NC(=O)[C@H](CCCCN)NC(=O)[C@H](CCC(=O)O)NC(=O)[C@H](CCCCN)NC(=O)[C@H](CCC(=O)O)NC(=O)CC[C@H](NC(=O)CCCCCCCCCCCCCCCCCCC(=O)O)C(=O)O)CSCSC[C@@H](C(=O)N2CCC[C@H]2C(=O)N[C@@H](CO)C(=O)N[C@@H](Cc2ccccc2)C(=O)N[C@@H](CCCNC(=N)N)C(=O)N[C@@H](Cc2c[nH]cn2)C(=O)NCC(=O)NCC(=O)N2CCC[C@H]2C(N)=O)NC(=O)CNC(=O)[C@H](CC(C)C)NC(=O)CNC(=O)[C@H](CO)NC(=O)[C@H](Cc2ccc(O)cc2)NC(=O)[C@H](Cc2c[nH]cn2)NC(=O)CNC1=O` [Example 129] the same measures were 2960 pM and 1010 pM.
